From PubChem BioAssay AID651702 (NMMLSC, 2012)
The entries are a selection whose mix differs from that of the whole data set. Activity calls are given as the source filed them.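 The calls were made as follows: active = inhibition above about 55% (limit read from the data); inconclusive = no clear call, values can overlap the other calls; inactive = the rest.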

Assay: LAMP-1 surface exposure blockers, TALL-104 cells – cell-based, flow cytometry, MLPCN library, primary screen (AID 651702)
Conditions: TALL-104 LAMP-1 surface exposure, at 10 µM, active compounds read high, cells stimulated with thapsigargin and PMA

Row | Compound | inhibition
1 | CN(C)C(=O)c1cc([N+](=O)[O-])cc2c1-c1c(cc([N+](=O)[O-])cc1[N+](=O)[O-])C2=O | active: 77.5%
2 | NC(=O)Nc1ccc([As](=O)(O)O)cc1 | inactive: 3%
3 | Nc1ccccc1[As](=O)(O)c1ccccc1 | inactive: 1.8%
4 | O=C(O)COc1ccc([As](=O)(O)O)cc1[N+](=O)[O-] | inactive: 8.1%
5 | O=P(Nc1nccs1)(Oc1ccccc1)Oc1ccccc1 | inactive: -4.9%
6 | O=P(Nc1nccs1)(c1ccccc1)c1nc2ccccc2s1 (centres undefined) | inactive: 4.4%
7 | CCOP1(=S)c2c(C)nn(CCC#N)c2N=C(c2ccccc2F)N1C (centres undefined) | inactive: -3.1%
8 | CS(=O)(=O)c1cc([N+](=O)[O-])c2no[n+]([O-])c2c1 | inactive: -5.8%
9 | Nc1cccc([As](=O)(O)c2ccccc2)c1 | inactive: 0.3%
10 | O=[As](O)(c1cccs1)c1cccs1 | inactive: -13.7%
11 | Cc1ccc(OCC(=O)OC2CN3CCC2CC3)cc1 (centres undefined) | inactive: 0%
12 | O=P1(Nc2ccc(Br)cn2)COc2ccccc2OC1 | inactive: -2.7%
13 | NS(=O)(=O)c1cccc(NC(=O)COC(=O)C(O)(c2ccccc2)c2ccccc2)c1 | inactive: -3.2%
14 | Cc1ccc(S(=O)(=O)N(CCCN)CCCc2c(C)nc(N)[nH]c2=O)cc1 | inactive: -13%
15 | O=P1(Nc2ncccn2)COc2ccccc2OC1 | inactive: 0.9%
16 | CN(C)C1(CNC(=O)c2ccc(S(C)(=O)=O)cc2)CCCCC1 | inactive: -3.7%
17 | CCCC1OP(=O)(Nc2ccccc2)OCC1CC (centres undefined) | inactive: -3.4%
18 | O=C(/C=C/c1ccccc1)OC1CN2CCC1CC2 (centres undefined) | inactive: -2.5%
19 | CC1CCC(C(C)C)C(OP(=O)(Nc2ccccn2)c2ccccc2)C1 (centres undefined) | inactive: 3.7%
20 | Cc1ccc(C(=O)OC2CN3CCC2CC3)cc1 (centres undefined) | inactive: -9.7%
21 | Cc1nn(-c2ccccc2)c2c1P(=O)(N1CCOCC1)N(C)C(c1ccccc1)=N2 (centres undefined) | inactive: 0.3%
22 | CC(C)/C=N\N=C(\N)N[N+](=O)[O-] | inactive: -0.5%
23 | CN(C(=O)Cc1ccc(Cl)c(Cl)c1)[C@@H]1CCCC[C@H]1N1CCCC1 | inactive: -1.5%
24 | CC1(CBr)Cn2c(nc3ccccc3c2=O)S1 (centres undefined) | inactive: 1.8%
25 | COc1ccccc1CNC(=O)COC(=O)C(O)(c1ccccc1)c1ccccc1 | inactive: -6.5%

Row | Compound | inhibition
26 | CC(C)(C)C(=O)NC(Sc1ncccn1)C(Cl)(Cl)Cl (centres undefined) | inactive: -3.2%
27 | O=P1(N(CCCl)CCCl)NCCC(C(F)(F)F)O1 (centres undefined) | inactive: -0.2%
28 | Clc1n[nH]nc1-c1nn[nH][15n]1 | inactive: 11.8%
29 | CCOP(=O)(NC(=NC(C)c1ccccc1)NC(C)c1ccccc1)OCC (centres undefined) | inactive: 12.1%
30 | O=P1(Nc2ccccn2)COc2ccccc2OC1 | inactive: -1.8%
31 | CCC1=CC2Cc3nc4ccc(Cl)cc4c(N)c3C(C1)C2 (centres undefined) | active: 85.8%
32 | CCOP(=O)(Nc1ccc(C)cn1)OCC | inactive: -2.1%
33 | CN(CCCl)Cc1cc(Cl)c(NC2=NCCN2)c(Cl)c1 | inactive: -1.1%
34 | CCC(C)N(CC(C)C)C(=S)SC(NC(C)=O)C(Cl)(Cl)Cl (centres undefined) | inactive: 5.9%
35 | CSc1ccc(Nc2c([N+](=O)[O-])cc([N+](=O)[O-])cc2[N+](=O)[O-])cc1 | inactive: -0.1%
36 | O=C(OC1CN2CCC1CC2)c1cccc([N+](=O)[O-])c1 (centres undefined) | inactive: -2.6%
37 | CCOC(=O)c1ccc(NC(=O)C(C)(CCl)SC)cc1 (centres undefined) | inactive: -5.2%
38 | O=C(O)C(=O)c1ccc(N(CCCl)CCCl)cc1 | inactive: 1.9%
39 | O=C(Nc1ccncc1[N+](=O)[O-])c1ccc([N+](=O)[O-])cc1[N+](=O)[O-] | inactive: 5.2%
40 | O=C(COc1ccccc1)OC1CN2CCC1CC2 (centres undefined) | inactive: -1.8%
41 | COC(=O)C1(C)COP(=O)(N2CCCC2)OC1 (centres undefined) | inactive: -0.9%
42 | COP1(=S)c2c(C)nn(CCC#N)c2N=C(c2ccc(F)cc2)N1C (centres undefined) | inactive: 1.8%
43 | O=P(Nc1ccccn1)(c1cccc2ccccc12)c1cccc2ccccc12 | inactive: -1%
44 | Cc1cc(SC(NC=O)C(Cl)(Cl)Cl)ncn1 (centres undefined) | inactive: 1.1%
45 | O=[N+]([O-])c1ccc(Nc2ccc(Oc3ccc([N+](=O)[O-])cc3[N+](=O)[O-])cc2)c([N+](=O)[O-])c1 | inactive: 1.5%
46 | CCOC(=O)Nc1cccc([As](=O)(O)O)c1 | inactive: -0.3%
47 | COP(=O)(OC)N1CC1c1ccccc1 (centres undefined) | inactive: 3.4%
48 | Cc1cc(SC(NC(=O)c2ccccc2)C(Cl)(Cl)Cl)nc(C(C)C)n1 (centres undefined) | inactive: -4%
49 | CCCCOc1ccc(C(=O)NCC2(N3CCCCC3)CCCCC2)cc1OC | inactive: 39.6%
50 | CCOC(=O)Nc1ccc([As](=O)(O)O)c(O)c1 | inactive: -8.4%

Row | Compound | inhibition
51 | O=C(O)C(O)c1ccc(N(CCCl)CCCl)cc1 (centres undefined) | inactive: -5.9%
52 | CC1CCNP(=O)(N(CCCl)CCCl)O1 (centres undefined) | inactive: 25%
53 | O=[N+]([O-])c1cc([N+](=O)[O-])c(-c2ccn[nH]2)s1 | inactive: 14.5%
54 | CC(C)NC(=O)NP(=O)(Oc1ccccc1)Oc1ccccc1 | inactive: -0.9%
55 | O=C(OC1CN2CCC1CC2)c1cccc2[nH]cnc12 (centres undefined) | inactive: 1.9%
56 | CCN(CC)C(=S)SC(NC=O)C(Cl)(Cl)Cl (centres undefined) | inactive: -0.9%
57 | ClCCSc1nnc(-c2cccnc2)o1 | inactive: 13.4%
58 | COC(=O)C1(C)COP(=O)(N2CCCCCC2)OC1 (centres undefined) | inactive: -9.2%
59 | CC(C)c1ccc(OP(=O)(Nc2ccccn2)Oc2ccccc2F)cc1 (centres undefined) | inactive: -1.7%
60 | [N-]=[N+]=NC1CCCCC1NC(=O)c1cc([N+](=O)[O-])cc([N+](=O)[O-])c1 (centres undefined) | inactive: -5.9%
61 | Cc1ccc(OP(=O)(Nc2ccc([N+](=O)[O-])cn2)Oc2ccc(C)cc2)cc1 | inactive: -2.9%
62 | Cc1ccc2nc3c(c(C)c2c1)CC(C(Cl)Cl)S3 (centres undefined) | inactive: 0.5%
63 | O=[N+]([O-])c1ccc(-c2cc([N+](=O)[O-])c(O)c([N+](=O)[O-])c2)cc1 | inactive: 11.3%
64 | COc1cc(C(=O)NCC2(N3CCOCC3)CCCCC2)ccc1OCC(C)C | inactive: 0.9%
65 | O=[As](O)(c1ccc(O)cc1)c1ccccc1O | inactive: -1.6%
66 | C[As](=O)(O)c1cccc(C(=O)O)c1 | inactive: -4.9%
67 | O=[N+]([O-])c1cc(Oc2ccc([N+](=O)[O-])cc2C(F)(F)F)cc([N+](=O)[O-])c1 | inactive: 1%
68 | COc1ccc(N/C(=N/P(=O)(N2CCOCC2)N2CCOCC2)N2CCOCC2)cc1 | inactive: -0.3%
69 | O=P1(N(CCCl)CCCl)Nc2ccccc2N1 | inactive: 4.2%
70 | O=P1(N(CCCl)CCCl)OCCCN1CCCl (centres undefined) | inactive: -1.5%
71 | COc1ccc2nc(NP(=O)(c3ccccc3)c3ccccc3)sc2c1 | inactive: -1.1%
72 | Cc1c2c(nc3ccccc13)SC(C(Cl)Cl)C2 (centres undefined) | inactive: -4.3%
73 | Cc1cc(=O)[nH]c(N[N+](=O)[O-])n1 | inactive: -4.3%
74 | O=C(OC1CN2CCC1CC2)C12CC3CC(CC(C3)C1)C2 (centres undefined) | inactive: 0%
